Measurements published in patent publication US20150273025A1, “APYRASE TREATMENTS” (THE REGENTS OF THE UNIVERSITY OF MICHIGAN, priority 2012, published 2015).

System: A. baumannii DMC1
Experiment: Mouse wound model, viable bacteria at burn sites 24 hours after burn
Conditions: C57BL/6 mice, apyrase 1 U/ml, colistin 4 μg/ml

Substance: apyrase
- reduction in viable bacteria number compared to control and colistin groups: ~1 log
